Molecular target: rat VMAT2 (Rattus norvegicus, UniProt Q01827)
Settings: Fig. 2a source data, 25 μM compound

Amino acid sequences for entries named in this document (tags omitted).
UniProt Q01827, whole entry: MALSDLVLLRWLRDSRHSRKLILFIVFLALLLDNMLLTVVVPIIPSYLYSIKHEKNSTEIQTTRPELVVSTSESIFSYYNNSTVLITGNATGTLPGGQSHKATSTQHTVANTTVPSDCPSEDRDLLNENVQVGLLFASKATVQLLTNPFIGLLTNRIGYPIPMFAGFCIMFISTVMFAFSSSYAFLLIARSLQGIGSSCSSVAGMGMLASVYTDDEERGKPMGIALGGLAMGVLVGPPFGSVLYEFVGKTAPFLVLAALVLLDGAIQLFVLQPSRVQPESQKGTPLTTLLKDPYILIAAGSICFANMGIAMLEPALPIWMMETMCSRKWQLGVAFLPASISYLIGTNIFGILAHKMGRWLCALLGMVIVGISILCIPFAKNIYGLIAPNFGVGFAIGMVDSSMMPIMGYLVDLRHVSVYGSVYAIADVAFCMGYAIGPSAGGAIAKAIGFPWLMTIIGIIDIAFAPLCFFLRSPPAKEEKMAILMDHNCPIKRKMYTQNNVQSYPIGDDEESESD

COC(=O)[C@H]1[C@H]2C[C@@H]3c4[nH]c5cc(OC)ccc5c4CCN3C[C@H]2C[C@@H](OC(=O)c2cc(OC)c(OC)c(OC)c2)[C@@H]1OC [Reserpine]
VMAT2-specific FFN206 uptake relative to DMSO (=1), replicate samples: 0.08208

Source: paper PMC9684503 (Communications Biology, 2022)
